Key:
[1] = In vivo tolerability: physical appearance, creatinine, AST, ALT, pre-dose vs 24 h post-dose; settings: n = 6
Procedure: (§1) Rats, weighing more than 400 g, were put in metabolic cages and fasted overnight with free access to water before experiments. […] The intravenous preparations were freshly dissolved in 20% DMSO/NSS for injection. The oral preparations were freshly prepared by suspending the test compound in 0.5% CMC. To reduce pain and injury during drug administration and blood collection, rats were anesthetized with 5% isoflurane by chamber induction. Serial blood samples (300 μL) were collected at 0, 5, 15, and 30 min, and at 1, 2, 4, 8, and 24 h after dosing. Blood samples were centrifuged at 5000 g for 10 min, and plasma was collected and stored at − 20 °C until analysis. Determination of aspartate transaminase (AST), alanine transaminase (ALT), and creatinine levels were performed at pre-dosing, and at 0 h and 24 h after dosing. Creatinine level was determined by enzymatic Roche Cobas 6000 analyzer. In this enzymatic method creatinine is converted to creatine under the activity of creatininase. Creatine is then acted upon by creatinase to form sarcosine and urea. Sarcosine oxidase converts sarcosine to glycine and hydrogen peroxide, and the hydrogen peroxide reacts with chromophore in the presence of peroxidase to produce a color product that is measured at 546 nm (secondary wavelength = 700 nm). This is an endpoint reaction that agrees well with recognized HPLC methods, and it has the advantage over Jaffe picric acid-based methods that are susceptible to interferences from non-creatinine chromogens. For tissue collection, the rats was euthanized with isoflurane after oral dosing the test compound at 100 mg/kg for 7 days. After the dead was confirmed, spleen and blood were immediately collected, washed with normal saline solution, and send to immunology laboratory for further experiments. The control group received oral gavage of 0.5% CMC as vehicle control. All animal procedures were complied with the ethical principles and guidelines for the use of animals (National Research Council of Thailand, 2015).
(§2) All pharmacokinetic parameters were computed by non-compartmental analysis using PK Solution 2.0 software (Summit Research Service, USA). […] The absolute oral bioavailability was calculated as (AUCp.o. ÷ dose p.o.) ÷ (AUCi.v. ÷ dose i.v.). Pharmacokinetic data are presented as mean ± standard deviation. Blood chemical parameters were analyzed by Mann–Whitney U-test to compare the significance of differences between pre-dosing and 24 h post-dosing, with a p-value of less than 0.05. All statistical analyses were calculated using SPSS version 16 (SPSS, Inc., USA). […] The data were analyzed with an unpaired Student’s t-test. A p-value of < 0.05 was considered statistically significant.

[2] = Plasma pharmacokinetics of asiaticoside and madecassoside (LC-MS/MS, non-compartmental analysis)
Procedure: as §1
Protein precipitation by methanol was applied for preparation of LC-MS/MS samples. Briefly, plasma sample (50 μL) was mixed with 200 μL of methanol containing 10 ng of IS. The mixture was centrifuged at 10,000 g for 10 min and 10 μL of supernatant then injected for analysis by the LC-MS/MS system. Validation of the bioanalytical method of bioactive triterpenoid determination was based on previous study by our groups. In brief, LC-MS/MS was performed on a Nexera ultra high-performance liquid chromatograph and 8060 triple quadrupole mass spectrometers (Shimadzu Co., Ltd., Japan). The stationary phase was Synergi Fusion-RP C18 column (Phenomenex Inc., USA) with 40 °C oven temperature. The mobile phase was 100% methanol and 0.2% formic acid in water with gradient elution. The flow rate was 0.5 mL/min and the volume of injection 10 μL.
as §2

[3] = 24 h after dosing, asiaticoside IV 4 mg/kg, madecassoside IV 5 mg/kg, ECa 233 PO 100 mg/kg, mean ± SD
[4] = pre-dose baseline of the group, mean ± SD
[5] = Asiaticoside 4 mg/kg IV, analyte asiaticoside
[6] = pure compound IV (asiaticoside 4.0 mg/kg, madecassoside 5.0 mg/kg)

What does the source list for asiaticoside?
ALT, Post-dose (24 h) [1, 3]: 27.40 ± 5.32 U/L; AST, Post-dose (24 h) [1, 3]: 54.80 ± 9.20 U/L; Creatinine, Post-dose (24 h) [1, 3]: 0.61 ± 0.04 mg/dL; Physical appearance, Post-dose (24 h) ([1]; 24 h after dosing, asiaticoside IV 4 mg/kg, madecassoside IV 5 mg/kg, ECa 233 PO 100 mg/kg): Normal; Physical appearance, Pre-dose (0 h) ([1]; pre-dose baseline of the group, asiaticoside IV 4 mg/kg, madecassoside IV 5 mg/kg, ECa 233 PO 100 mg/kg): Normal; ALT, Pre-dose (0 h) [1, 4]: 26.80 ± 3.83 U/L; AST, Pre-dose (0 h) [1, 4]: 42.40 ± 14.54 U/L; Creatinine, Pre-dose (0 h) [1, 4]: 0.60 ± 0.03 mg/dL; AUC0-inf [2, 5]: 7605.43 ± 12,142.80 μg.h/L; CL [2, 5]: 37.5 ± 27.7 mL/min/kg; MRT [2, 5]: 44.4 ± 18.6 min; T1/2 [2, 5]: 58.8 ± 33.6 min; Vd [2, 5]: 3.27 ± 3.91 L/kg; AUC0-t ([2]; Asiaticoside 4 mg/kg IV, analyte asiaticoside, 0-24 h, mean ± SD, n = 6): 7588.69 ± 12,144.79 μg.h/L; Maximum plasma level after intravenous injection [2, 6]: approximately 3000 μg/L; Plasma concentration at 8 h after dosing [2, 6]: approximately 10 μg/L
